Consider one substance from patent US20050090551A1, “Therapeutic use of methionine for the treatment or prevention of mucositis” (Board of Trustees of Southern Illinois University, priority 2003, published 2005).

This data set concerns male Wistar rats. Briefly: Survival and general condition (activity, coat) during CDDP study period. To be noted: 16 mg/kg CDDP alone (treated control group).

Turning to cis-diamminedichloroplatinum(II), the “animals surviving to the end of the study period” value was 5/10 and the “animals that did not survive to the end of the study period” value is given as 50%.
